The numbers were not newly measured in US20100286257A1, “Methods Of Use Of Nitroalkane Compositions In Dermatologic Applications To Prevent or Treat Skin Aging” (priority 2009, published 2010), which cites them from elsewhere.

The chains behind the UniProt entries cited, without tags or fusion partners. Where a name states a change or a piece, a line headed by the entry shows the natural chain unless it says otherwise.
UniProt P46406: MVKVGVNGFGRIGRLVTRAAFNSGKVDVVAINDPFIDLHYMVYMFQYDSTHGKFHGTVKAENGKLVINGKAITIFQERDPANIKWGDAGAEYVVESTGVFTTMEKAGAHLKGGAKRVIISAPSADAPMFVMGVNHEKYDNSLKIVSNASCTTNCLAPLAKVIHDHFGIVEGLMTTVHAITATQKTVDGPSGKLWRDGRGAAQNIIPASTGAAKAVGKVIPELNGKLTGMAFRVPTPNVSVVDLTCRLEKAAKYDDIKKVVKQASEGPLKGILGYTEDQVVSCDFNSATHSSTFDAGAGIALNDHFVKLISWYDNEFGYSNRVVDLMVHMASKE

Usually IC50 stands for the concentration that inhibits the measured activity by half.

In the data set the target is Glyceraldehyde-3-phosphate dehydrogenase (GAPDH) (Oryctolagus cuniculus, UniProt P46406). The following applies: reported in Batthyany et al., J Biol Chem, 2006 281:20450-63; read-out: IC50 for GAPDH inhibition.

For “9-, 10-, 12- and 13-nitro- cis-octedecadienoic acids [nitro-linoleic acid]”, the IC50 was 3000 nM.
